Measured values as given in patent publication US4263427A, “Monensin urethane derivatives” (priority 1979, dated 1981).
Where “and” joins values, the source holds several entries; their conditions need not be identical. Equal entries are not always repeated. Structures can show the parent of a compound that is named as a salt.

What follows are compounds tested on rumen fluid. Conditions: not given.

Row | SMILES | Relative levels of propionate (C3) to acetate + butyrate (C2 + C4)
1 | CC[C@@H](C(=O)O)[C@@H]1O[C@@H]([C@@H](C)[C@H](O)[C@H](C)C(=O)[C@H](CC)[C@H]2O[C@]3(C=C[C@@H](O)[C@]4(CC[C@@](C)([C@H]5CC[C@](O)(CC)[C@H](C)O5)O4)O3)[C@H](C)C[C@@H]2C)[C@@H](C)C[C@@H]1C [Narasin, reference compound] | 166%
2 | CC[C@@]1([C@@H]2O[C@@H]([C@H]3O[C@@](O)(CO)[C@H](C)C[C@@H]3C)C[C@@H]2C)CC[C@H]([C@]2(C)CC[C@]3(C[C@H](O)[C@@H](C)[C@@H]([C@@H](C)[C@@H](OC)[C@H](C)C(=O)O)O3)O2)O1 [Monensin] | 162% and 165%
3 | COC(C(C)C(=O)O)C(C)C1OC2(CCC(C)(C3CCC(C)(C4OC(C5OC(O)(COC(=O)NC(C)c6ccccc6)C(C)CC5C)CC4C)O3)O2)CC(O)C1C [Monensin B, (R)-1-phenethylurethane] | 167%
4 | CCC1(C2OC(C3OC(O)(COC(=O)Nc4ccc(Br)cc4)C(C)CC3C)CC2C)CCC(C2(C)CCC3(CC(O)C(C)C(C(C)C(OC)C(C)C(=O)O)O3)O2)O1 (stereo not drawn) [Monensin A, 4-bromophenylurethane, 4-bromophenylaminocarbonyloxy-(0-11)-monensin, sodium salt] | 165%
5 | CCC1(C2OC(C3OC(O)(COC(=O)NCCc4ccccc4)C(C)CC3C)CC2C)CCC(C2(C)CCC3(CC(O)C(C)C(C(C)C(OC)C(C)C(=O)O)O3)O2)O1 (stereo not drawn) [Monensin A, 2-phenethylurethane] | 187%

Same assay, conditions: 2-phenethyl urethane(natural product)

Row | SMILES | Relative levels of propionate (C3) to acetate + butyrate (C2 + C4)
6 | COC(C(C)C(=O)O)C(C)C1OC2(CCC(C)(C3CCC(C)(C4OC(C5OC(O)(COC(=O)NCCc6ccccc6)C(C)CC5C)CC4C)O3)O2)CC(O)C1C (stereo not drawn) [Monensin B, 2-phenethylurethane] | 129% and 146%
